Experimental data taken from patent publication US9296759B2, “Amino-oxazine and amino-dihydrothiazine compounds as beta-secretase modulators and methods of use” (AMGEN INC., priority 2011, dated 2016).

Sequences of proteins named here, by UniProt entry; tags and fusion partners are left off. Residues count along the entry.
UniProt P56817, 46-501: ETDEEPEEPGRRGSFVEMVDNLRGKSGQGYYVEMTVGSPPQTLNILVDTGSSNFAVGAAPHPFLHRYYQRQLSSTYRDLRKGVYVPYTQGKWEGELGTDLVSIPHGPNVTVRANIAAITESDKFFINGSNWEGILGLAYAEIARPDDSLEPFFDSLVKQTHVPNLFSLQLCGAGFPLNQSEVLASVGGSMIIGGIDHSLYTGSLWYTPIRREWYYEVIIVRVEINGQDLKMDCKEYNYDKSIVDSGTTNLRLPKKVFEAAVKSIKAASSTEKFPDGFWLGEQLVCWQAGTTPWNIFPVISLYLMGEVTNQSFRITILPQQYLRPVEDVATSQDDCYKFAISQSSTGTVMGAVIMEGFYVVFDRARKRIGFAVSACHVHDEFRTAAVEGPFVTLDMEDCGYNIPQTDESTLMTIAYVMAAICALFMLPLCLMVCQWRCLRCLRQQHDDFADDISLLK
UniProt P07339, 65-412, species assumed: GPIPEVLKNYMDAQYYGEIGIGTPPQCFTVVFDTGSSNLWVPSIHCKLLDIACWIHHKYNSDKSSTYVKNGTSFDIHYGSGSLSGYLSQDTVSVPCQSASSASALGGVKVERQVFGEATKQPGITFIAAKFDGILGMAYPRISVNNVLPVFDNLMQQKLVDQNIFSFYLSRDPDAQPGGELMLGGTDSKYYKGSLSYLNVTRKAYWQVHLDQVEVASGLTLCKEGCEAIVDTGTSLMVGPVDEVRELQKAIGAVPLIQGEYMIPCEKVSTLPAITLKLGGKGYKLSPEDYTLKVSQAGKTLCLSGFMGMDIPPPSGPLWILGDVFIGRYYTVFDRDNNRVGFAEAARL

Columns and labels:
[1] = target: BACE 1 (beta secretase enzyme) (Homo sapiens (Human), UniProt P56817); experiment: In vitro enzymatic BACE FRET assay; format: biochemical; details: average IC50
Description: In Vitro Enzymatic BACE FRET (Fluorescence Resonance Energy Transfer) Assay
The assay buffer used in this screen is 0.05 M acetate, pH 4.2, 10% DMSO final, 100 uM genapol (which is a nonionic detergent, below its Critical Micelle Concentration). The beta secretase enzyme (0.2 nM) is pre-incubated for one hour with inhibitors, typically in about 1 uL of DMSO according to a serial dilution, are added thereto. This assay is effectively started by the addition of FRET substrate (50 nM) and the combination is incubated for one hour. The FRET assay is terminated with by addition of Tris buffer, which raises the pH to neutrality, and the fluorescence is determined. The FRET substrate is a peptide with commercially available fluorophore and quencher, on opposite sides of the BACE cleavage site. Proteolytic cleavage of the FRET substrate releases quenching of fluorescence (excitation […] and […]).

[2] = target: Cathepsin D (Homo sapiens (Human), UniProt P07339); experiment: In vitro enzymatic Cat D (Cathepsin D) FRET assay; format: biochemical; details: average IC50
Description: In Vitro Enzymatic Cat D (Cathepsin D) FRET (Fluorescence Resonance Energy Transfer) Assay
Recombinant CathepsinD was expressed in CHO cells. The assay buffer for CathepsinD is 0.05 M citrate pH 3.5, 10% DMSO final, 5 mM CHAPS. […] The assays are effectively started by the addition of different FRET substrates (20 nM for CathepsinD) and the combination is incubated for one hour. The FRET assay is terminated with by addition of Tris buffer, which raises the pH to neutrality, and the fluorescence is determined. The FRET substrate is a peptide with commercially available fluorophore and quencher, on opposite sides of the BACE cleavage site. […] Proteolytic cleavage of the FRET substrate releases quenching of fluorescence (CathepsinD excitation 500 nm and emission 580 nm).

pIC50 [1]	pIC50 [2]	Compound
7.71		COc1cc(F)c2c(c1)[C@]1(CCSC(N)=N1)c1cc(NC(=O)c3ccc(Cl)cn3)ccc1O2 [Example 32, N-((4S)-2-amino-5′-fluoro-7′-methoxy-5,6-dihydrospiro[1,3-thiazine-4,9′-xanthen]-2′-yl)-5-chloro-2-pyridinecarboxamide]
	3.44	NC1=N[C@@]2(CCO1)c1cc(NC(=O)c3ccc(Cl)cn3)ccc1Oc1c2cc(C2CC2)nc1F [Example 40, N-((5S)-2′-amino-3-cyclopropyl-1-fluoro-5′,6′-dihydrospiro[chromeno[2,3-c]pyridine-5,4′-[1,3]oxazin]-7-yl)-5-chloro-2-pyridinecarboxamide]
7.43		COc1cc(F)c2c(c1)[C@]1(CCOC(N)=N1)c1cc(NC(=O)c3ccc(Cl)cn3)ccc1O2 [Example 42, N-((4S)-2-amino-5′-fluoro-7′-methoxy-5,6-dihydrospiro[1,3-oxazine-4,9′-xanthen]-2′-yl)-5-chloro-2-pyridinecarboxamide]
8.57		NC1=N[C@@]2(CCO1)c1cc(NC(=O)c3ccc(Cl)cn3)ccc1Oc1ncc(C3=CCOCC3)cc12 [Example 45, N-((5S)-2′-amino-3-(3,6-dihydro-2H-pyran-4-yl)-5′,6′-dihydrospiro[chromeno[2,3-b]pyridine-5,4′-[1,3]oxazin]-7-yl)-5-chloro-2-pyridinecarboxamide]
9.40		CC#CCOc1cnc(C(=O)Nc2ccc3c(c2)[C@@]2(CCOC(N)=N2)c2cc(Cl)nc(F)c2O3)cn1 [Example 48, N-((5S)-2′-amino-3-chloro-1-fluoro-5′,6′-dihydrospiro[chromeno[2,3-c]pyridine-5,4′-[1,3]oxazin]-7-yl)-5-(2-butyn-1-yloxy)-2-pyrazinecarboxamide]
7.02		COc1cc(F)c2c(c1)[C@]1(CCOC(N)=N1)c1cc(NC(=O)c3cnc(OC)cn3)ccc1O2 [Example 75, N-((4S)-2-amino-5′-fluoro-7′-methoxy-5,6-dihydrospiro[1,3-oxazine-4,9′-xanthen]-2′-yl)-5-methoxy-2-pyrazinecarboxamide]
	3.40	CC(C)(C)C#Cc1cc2c(cn1)Oc1ccc(NC(=O)c3ccc(Cl)cn3)cc1[C@@]21CCOC(N)=N1 [Example 82, N-((5S)-2′-amino-3-(3,3-dimethyl-1-butyn-1-yl)-5′,6′-dihydrospiro[chromeno[2,3-c]pyridine-5,4′-[1,3]oxazin]-7-yl)-5-chloro-2-pyridinecarboxamide]
	3.39	Cc1nc(C(=O)Nc2ccc3c(c2)[C@@]2(CCOC(N)=N2)c2cc(C4=CCCOC4)nc(F)c2O3)cs1 [Example 85, N-((5S)-2′-amino-3-(5,6-dihydro-2H-pyran-3-yl)-1-fluoro-5′,6′-dihydrospiro[chromeno[2,3-c]pyridine-5,4′-[1,3]oxazin]-7-yl)-2-methyl-1,3-thiazole-4-carboxamide]
8.47		NC1=N[C@@]2(CCO1)c1cc(NC(=O)c3ccc(Cl)cn3)ccc1Oc1ncc(-c3ccnc(F)c3)cc12 [Example 90, N-((5S)-2′-amino-3-(2-fluoro-4-pyridinyl)-5′,6′-dihydrospiro[chromeno[2,3-b]pyridine-5,4′-[1,3]oxazin]-7-yl)-5-chloro-2-pyridinecarboxamide]
	3.40	COc1cnc(C(=O)Nc2ccc3c(c2)[C@@]2(CCOC(N)=N2)c2cc(-c4ccnc(F)c4)cc(F)c2O3)cn1 [Example 95, N-((4S)-2-amino-5′-fluoro-7′-(2-fluoro-4-pyridinyl)-5,6-dihydrospiro[1,3-oxazine-4,9′-xanthen]-2′-yl)-5-methoxy-2-pyrazinecarboxamide]
	3.40	Cc1nc(C(=O)Nc2ccc3c(c2)[C@@]2(CCOC(N)=N2)c2cc(-c4ccnc(F)c4)nc(F)c2O3)cs1 [Example 99, N-((5S)-2′-amino-1-fluoro-3-(2-fluoro-4-pyridinyl)-5′,6′-dihydrospiro[chromeno[2,3-c]pyridine-5,4′-[1,3]oxazin]-7-yl)-2-methyl-1,3-thiazole-4-carboxamide]
8.17		COc1cnc(C(=O)Nc2ccc3c(c2)[C@@]2(CCOC(N)=N2)c2cc(C4=CCCOC4)cc(F)c2O3)cn1 [Example 106, N-((4S)-2-amino-7′-(5,6-dihydro-2H-pyran-3-yl)-5′-fluoro-5,6-dihydrospiro[1,3-oxazine-4,9′-xanthen]-2′-yl)-5-methoxy-2-pyrazinecarboxamide]
9.00		N#Cc1ccc(C(=O)Nc2ccc3c(c2)[C@@]2(CCOC(N)=N2)c2cc(-c4ccnc(F)c4)cc(F)c2O3)nc1 [Example 108, N-((4S)-2-amino-5′-fluoro-7′-(2-fluoro-4-pyridinyl)-5,6-dihydrospiro[1,3-oxazine-4,9′-xanthen]-2′-yl)-5-cyano-2-pyridinecarboxamide]
9.00		NC1=N[C@@]2(CCS1)c1cc(NC(=O)c3ccc(Cl)cn3)ccc1Oc1c2cc(C2=CCOCC2)nc1F [Example 117, N-((5S)-2′-amino-3-(3,6-dihydro-2H-pyran-4-yl)-1-fluoro-5′,6′-dihydrospiro[chromeno[2,3-c]pyridine-5,4′-[1,3]thiazin]-7-yl)-5-chloro-2-pyridinecarboxamide]

Second part, the compound before the results:

Compound	pIC50 [1]	pIC50 [2]
NC1=N[C@@]2(CCO1)c1cc(NC(=O)c3ccc(Cl)cn3)ccc1Oc1c2cc(Cl)nc1F [Example 38, N-((5S)-2′-amino-3-chloro-1-fluoro-5′,6′-dihydrospiro[chromeno[2,3-c]pyridine-5,4′-[1,3]oxazin]-7-yl)-5-chloro-2-pyridinecarboxamide]	8.17	
Cc1cccnc1Nc1ccc2c(c1)[C@@]1(CCOC(N)=N1)c1cc(Cl)nc(F)c1O2 [Example 41, (5S)-3-chloro-1-fluoro-N~7~-(3-methyl-2-pyridinyl)-5′,6′-dihydrospiro[chromeno[2,3-c]pyridine-5,4′-[1,3]oxazine]-2′,7-diamine]	6.60	
COc1cnc(C(=O)Nc2ccc3c(c2)[C@@]2(CCOC(N)=N2)c2cc(C4=CCCOC4)ncc2O3)cn1 [Example 58, N-((5S)-2′-amino-3-(5,6-dihydro-2H-pyran-3-yl)-5′,6′-dihydrospiro[chromeno[2,3-c]pyridine-5,4′-[1,3]oxazin]-7-yl)-5-methoxy-2-pyrazinecarboxamide]		3.32
COc1cnc(C(=O)Nc2ccc3c(c2)[C@@]2(CCOC(N)=N2)c2cc(C4CCOCC4)cc(F)c2O3)cn1 [Example 61, N-((4S)-2-amino-5′-fluoro-7′-(tetrahydro-2H-pyran-4-yl)-5,6-dihydrospiro[1,3-oxazine-4,9′-xanthen]-2′-yl)-5-methoxy-2-pyrazinecarboxamide]	7.49	
N#Cc1ccc(C(=O)Nc2ccc3c(c2)[C@@]2(CCOC(N)=N2)c2cc(C4=CCOCC4)nc(F)c2O3)nc1 [Example 64, N-((5S)-2′-amino-3-(3,6-dihydro-2H-pyran-4-yl)-1-fluoro-5′,6′-dihydrospiro[chromeno[2,3-c]pyridine-5,4′-[1,3]oxazin]-7-yl)-5-cyano-2-pyridinecarboxamide]		3.40
COc1ccc(C(=O)Nc2ccc3c(c2)[C@@]2(CCOC(N)=N2)c2cc(OC)cc(F)c2O3)c(F)c1 [Example 77, N-((4S)-2-amino-5′-fluoro-7′-methoxy-5,6-dihydrospiro[1,3-oxazine-4,9′-xanthen]-2′-yl)-2-fluoro-4-methoxybenzamide]	6.50	
NC1=N[C@@]2(CCO1)c1cc(NC(=O)c3ccc(Cl)cn3)ccc1Oc1c2cc(-c2ccnc(F)c2)nc1F [Example 91, N-((5S)-2′-amino-1-fluoro-3-(2-fluoro-4-pyridinyl)-5′,6′-dihydrospiro[chromeno[2,3-c]pyridine-5,4′-[1,3]oxazin]-7-yl)-5-chloro-2-pyridinecarboxamide]	9.05	
COc1nc(C2=CCOCC2)cc2c1Oc1ccc(NC(=O)c3ccc(F)cn3)cc1[C@@]21CCOC(N)=N1 [Example 96, N-((5S)-2′-amino-3-(3,6-dihydro-2H-pyran-4-yl)-1-methoxy-5′,6′-dihydrospiro[chromeno[2,3-c]pyridine-5,4′-[1,3]oxazin]-7-yl)-5-fluoro-2-pyridinecarboxamide]	7.59	3.40
NC1=N[C@@]2(CCO1)c1cc(NC(=O)c3ccc(F)cn3)ccc1Oc1c2cc(-c2ccnc(F)c2)nc1F [Example 97, N-((5S)-2′-amino-1-fluoro-3-(2-fluoro-4-pyridinyl)-5′,6′-dihydrospiro[chromeno[2,3-c]pyridine-5,4′-[1,3]oxazin]-7-yl)-5-fluoro-2-pyridinecarboxamide]		3.40
COc1cnc(C(=O)Nc2ccc3c(c2)[C@@]2(CCSC(N)=N2)c2cc(-c4cncc(F)c4)nc(F)c2O3)cn1 [Example 112, N-((5S)-2′-amino-1-fluoro-3-(5-fluoro-3-pyridinyl)-5′,6′-dihydrospiro[chromeno[2,3-c]pyridine-5,4′-[1,3]thiazin]-7-yl)-5-methoxy-2-pyrazinecarboxamide]		3.65
NC1=N[C@@]2(CCS1)c1cc(NC(=O)c3ccc(F)cn3)ccc1Oc1c2cc(C2=CCOCC2)nc1F [Example 116, N-((5S)-2′-amino-3-(3,6-dihydro-2H-pyran-4-yl)-1-fluoro-5′,6′-dihydrospiro[chromeno[2,3-c]pyridine-5,4′-[1,3]thiazin]-7-yl)-5-fluoro-2-pyridinecarboxamide]		3.68

pIC50: −log10 of the molar value.
